US20130096098A1, “Light Insensitive Silver(i) Cyanoximates As Antimicrobial Agents For Indwelling Medical Devices” (MISSOURI STATE UNIVERSITY, priority 2011, published 2013)

Test: UV-light stability studies, low-pressure Hg lamp 254 nm
Type: physicochemical
Experimental: Photophysical Measurements. Light sensitivity and stability of synthesized Ag(I) cyanoximates was studied at 296 K using a low-pressure Hg lamp with >85% output at λmax=254 nm where the intensity of light was measured with a UVX radiometer (UK). After 4 min warm-up time, this lamp generated a steady flux of UV-radiation that was equal to the dose of 10.13 J/cm^2 within 30 min. Prior to these investigations, complexes were thoroughly dried under high vacuum (<10^−4 Torr) and ground into a powder using an agate mortar. This made it easy to apply these compounds to paper, adhesive tape, or cardboard. Samples of complex were spread on white cardboard with an exposed circular area (via a mask) of ˜3 cm. The radiation source was positioned 1 cm from the sample. A pristine white silver chloride prepared in the dark was used as a control substance to access the light stability of silver(I) cyanoximates. Digital pictures of irradiated samples were taken every 30 min using a stationary digital camera (Kodak DX7630; 6.1 Mpx), and native images were cropped to square shape without any contrast or brightness editing using Samsung Digimax Viewer 2.0 software.

Silver(I) α-Oximido-(2-pivaloyl)acetonitrile [Ag(PiCO)]
stability toward short wavelength UV-radiation: resistance
